The experiment deals with T1, Interstitial collagenase (Homo sapiens) (UniProt P03956).
T1 sequence (whole entry): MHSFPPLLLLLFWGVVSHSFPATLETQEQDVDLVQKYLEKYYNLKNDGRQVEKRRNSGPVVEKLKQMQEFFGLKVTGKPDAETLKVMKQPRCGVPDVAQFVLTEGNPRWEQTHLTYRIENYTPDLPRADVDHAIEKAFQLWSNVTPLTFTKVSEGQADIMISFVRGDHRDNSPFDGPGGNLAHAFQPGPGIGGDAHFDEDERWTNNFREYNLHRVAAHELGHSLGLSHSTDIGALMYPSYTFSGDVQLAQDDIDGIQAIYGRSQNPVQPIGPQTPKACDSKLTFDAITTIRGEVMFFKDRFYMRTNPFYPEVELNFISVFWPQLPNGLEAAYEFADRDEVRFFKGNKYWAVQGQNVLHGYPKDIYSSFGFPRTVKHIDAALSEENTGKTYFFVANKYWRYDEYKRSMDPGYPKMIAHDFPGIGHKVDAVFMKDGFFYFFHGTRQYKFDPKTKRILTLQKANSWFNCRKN
To be noted: 1 mM.

By inhibition is commonly meant the share of the control response that was lost under treatment. The low end stands for a weak effect, the high end for a strong effect. On to `N=C(N)NCCC[C@H](N)C(=O)Nc1ccc(Oc2ccc(S(=O)(=O)CC3CS3)cc2)cc1` (stereo partly specified), for which the inhibition was found to be 43%.

The record behind these values is ChEMBL document CHEMBL1833788, “Selective water-soluble gelatinase inhibitor prodrugs” (J Med Chem, 2011).
